According to ChEMBL document CHEMBL3751783, “Straightforward and effective synthesis of γ-aminobutyric acid transporter subtype 2-selective acyl-substituted azaspiro[4.5]decanes” (Bioorg Med Chem Lett, 2016):
pIC50: −log10 of the molar value.

Molecular target: Sodium- and chloride-dependent GABA transporter 1 (Mus musculus, UniProt P31648)
Assay: Inhibition of mouse GAT1 mediated [3]GABA uptake expressed in HEK293 cells after 3 mins by scintillation counting
Assay type: cell-based

For `COc1ccc(C(OCCN2CCC[C@H](C(=O)O)C2)(c2ccc(OC)cc2)c2ccc(OC)cc2)cc1`, the pIC50 was 3.70.
